Data from PMC7723054.
Some of the results follow.

T1: LIN28A (human?, UniProt Q9H9Z2 1-209)
T1 sequence: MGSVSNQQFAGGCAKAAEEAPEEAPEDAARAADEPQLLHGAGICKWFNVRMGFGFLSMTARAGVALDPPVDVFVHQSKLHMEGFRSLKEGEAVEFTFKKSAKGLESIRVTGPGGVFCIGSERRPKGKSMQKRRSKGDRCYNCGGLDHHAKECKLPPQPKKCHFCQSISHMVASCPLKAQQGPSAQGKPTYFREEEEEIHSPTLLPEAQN

T2: CIRBP (Homo sapiens, UniProt Q14011 1-172)
T2 sequence: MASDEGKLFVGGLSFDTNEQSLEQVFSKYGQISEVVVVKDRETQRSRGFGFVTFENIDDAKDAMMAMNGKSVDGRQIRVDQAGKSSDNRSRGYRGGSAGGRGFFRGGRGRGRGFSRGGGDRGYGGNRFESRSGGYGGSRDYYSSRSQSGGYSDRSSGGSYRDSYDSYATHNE

T3: DHX36 (Homo sapiens, UniProt Q9H2U1 1-1008)
T3 sequence: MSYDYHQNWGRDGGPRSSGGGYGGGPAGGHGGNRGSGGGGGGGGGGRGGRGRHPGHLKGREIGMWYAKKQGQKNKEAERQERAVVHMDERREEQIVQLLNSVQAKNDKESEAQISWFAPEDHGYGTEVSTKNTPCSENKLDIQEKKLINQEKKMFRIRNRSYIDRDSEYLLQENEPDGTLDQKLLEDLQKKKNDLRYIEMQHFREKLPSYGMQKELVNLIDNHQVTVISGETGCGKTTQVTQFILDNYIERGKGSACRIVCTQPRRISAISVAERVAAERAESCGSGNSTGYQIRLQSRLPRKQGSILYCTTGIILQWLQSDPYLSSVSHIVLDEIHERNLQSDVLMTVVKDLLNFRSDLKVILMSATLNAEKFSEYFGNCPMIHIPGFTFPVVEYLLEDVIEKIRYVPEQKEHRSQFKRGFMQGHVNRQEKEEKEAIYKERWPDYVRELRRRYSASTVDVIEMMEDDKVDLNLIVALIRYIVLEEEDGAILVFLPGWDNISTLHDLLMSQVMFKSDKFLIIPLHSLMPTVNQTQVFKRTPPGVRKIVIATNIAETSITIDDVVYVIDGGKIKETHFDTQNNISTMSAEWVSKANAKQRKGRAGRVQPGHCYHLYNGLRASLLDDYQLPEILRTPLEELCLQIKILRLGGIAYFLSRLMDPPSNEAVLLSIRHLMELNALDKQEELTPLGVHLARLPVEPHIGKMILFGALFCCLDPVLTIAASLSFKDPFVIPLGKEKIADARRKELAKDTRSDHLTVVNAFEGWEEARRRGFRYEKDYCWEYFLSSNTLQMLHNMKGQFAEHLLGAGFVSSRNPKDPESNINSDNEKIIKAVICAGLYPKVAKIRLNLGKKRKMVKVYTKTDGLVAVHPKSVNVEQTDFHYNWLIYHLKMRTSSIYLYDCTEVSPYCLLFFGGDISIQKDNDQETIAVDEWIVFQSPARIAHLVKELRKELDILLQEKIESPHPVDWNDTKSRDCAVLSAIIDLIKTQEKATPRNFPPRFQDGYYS

B1: hsa-mir-6757 (structured_RNA)
RNA: GGGACAACGUAGGACCACCGAACGUUCCGGUGUACGAAGUUUCAGCGAUGAAGAUUAAUCCCUAAUCCCCAACAGCUGAAGCUUCGUGCAC
B2: hsa-mir-7973-2 (structured_RNA)
RNA: GGGACCGUAAGUAGACAGCCAACGUUUUGGUGUACGAAGUUUCAGCUUACUCACCCUCUCAAAACCGAGACUCAGAGACGUUGGGUAAGCUGAAGCUUCGUGCAC
B3: hsa-mir-1281 (structured_RNA)
RNA: GGGAAGUUCCAACGGGUUAAAAUACGUAGGUGUACGAAGUUUCAGCGUGAGUGUCUCUUGUCGCGCUGAAGCUUCGUGCAC
B4: PARIS_ID2 (structured_RNA)
RNA: GGGAAGGCAAGCGUUUUAUCAAUCCAGCGGUGUACGAAGUUUCAGCGGGUCCAAGACAUAUAAUCAUGUAUAAUUUUGUCAAGGUAUAAUUUUUUAAAUUGCUUUUGUCAUGUGUCUGCUGGUGAUGCCCGCUGAAGCUUCGUGCAC
B5: hsa-mir-3619 (structured_RNA)
RNA: GGGAAGGAAUAAUCAUAUGGCAGGACACGGUGUACGAAGUUUCAGCCAGCCCGUGGUGGGGGCUGAAGCUUCGUGCAC
B6: hsa-mir-4431 (structured_RNA)
RNA: GGGACAAUCUCCGGCACGUGAACUUCAAGGUGUACGAAGUUUCAGCAGGUUUAUGACUGGGCAUUUCUCACCCAAUGCCCAAUAUUGAACUUGCUGAAGCUUCGUGCAC
B7: hsa-mir-4450 (structured_RNA)
RNA: GGGAGACACCGAGCUCAACUGAAAUACGGGUGUACGAAGUUUCAGCGUGAGCGCAGGUCUUUGGCACGCUGAAGCUUCGUGCAC
B8: hsa-mir-544b (structured_RNA)
RNA: GGGAUAUUGUAGAACUGUUAGCUGCACCGGUGUACGAAGUUUCAGCAUUUCUGUAGCUCUGAGACUAGACCUGCUGAAGCUUCGUGCAC
B9: hsa-mir-4285 (structured_RNA)
RNA: GGGAAAACCGAUUGUGCGACUGUUUAGAGGUGUACGAAGUUUCAGCUCAUAAAUAUUUUAAGGAAUGACCCGGCCCUGGGGGCUGAAGCUUCGUGCAC
B10: hsa-mir-1185-2_1185-1 (structured_RNA)
RNA: GGGACAGGCGGUGCAAAUGCUCAUCAACGGUGUACGAAGUUUCAGCAUGUUCACUUGAUUAAUGGCGAAUAUGCUGAAGCUUCGUGCAC
B11: hsa-mir-3166 (structured_RNA)
RNA: GGGAAUUUUGCGGGGCGAGUGAACUUCGGGUGUACGAAGUUUCAGCUGCGUUAGGAUUUCUGUAUCAUCCUCCUAACGCAGCUGAAGCUUCGUGCAC
B12: hsa-mir-32 (structured_RNA)
RNA: GGGAACGCGAGAAGACCACUUGAUCUAUGGUGUACGAAGUUUCAGCGUUGCAUGUUGUCACGGCCUCAAUGCAAUGCUGAAGCUUCGUGCAC

Target: U1A (Homo sapiens, UniProt P09012)
Assay: FOREST: bead pull-down of RNA structure library v1, barcode microarray; U1A/LIN28A: 20 mM HEPES pH 7.5, 80 mM KCl, 20 mM NaCl, 10% glycerol, 2 mM DTT, 0.1 ug/uL BSA, 4 C; BG4/CIRBP/DHX36: 10 mM Tris-HCl pH 7.5, 100 mM KCl (or LiCl),; high values mean tight binding

| Binder | binding signal |
| --- | --- |
| B1 | 0.134 z-score |
| B2 | 0.125 z-score |
| B3 | 0.125 z-score |
| B4 | 0.122 z-score |
| B5 | 0.127 z-score |
| B6 | 1.79 z-score |
| B7 | 0.123 z-score |
| B8 | 0.126 z-score |
| B9 | 0.122 z-score |
| B10 | 0.123 z-score |
| B11 | 0.133 z-score |
| B12 | 0.135 z-score |

Target: T1, LIN28A
Assay: as above

| Binder | binding signal |
| --- | --- |
| B1 | -0.0247 z-score |
| B2 | 0.157 z-score |
| B3 | 0.55 z-score |
| B4 | 0.784 z-score |
| B5 | -0.0822 z-score |
| B6 | -0.0682 z-score |
| B7 | 1.09 z-score |
| B8 | 0.336 z-score |
| B9 | 1.44 z-score |
| B10 | -0.196 z-score |
| B11 | 0.953 z-score |
| B12 | -1.3 z-score |

Target: T2, CIRBP
Assay: as above

| Binder | binding signal |
| --- | --- |
| B1 | -0.835 z-score |
| B2 | 0.346 z-score |
| B3 | 0.653 z-score |
| B4 | -1.81 z-score |
| B5 | 0.359 z-score |
| B6 | 0.306 z-score |
| B7 | -0.324 z-score |
| B8 | -0.0825 z-score |
| B9 | -0.141 z-score |
| B10 | -0.877 z-score |
| B11 | -0.565 z-score |
| B12 | -0.459 z-score |

Target: T3, DHX36
Assay: as above

| Binder | binding signal |
| --- | --- |
| B1 | -0.97 z-score |
| B2 | 0.42 z-score |
| B3 | 0.556 z-score |
| B4 | -0.0451 z-score |
| B5 | 0.121 z-score |
| B6 | -1.22 z-score |
| B7 | -0.594 z-score |
| B8 | -1.19 z-score |
| B9 | 1.02 z-score |
| B10 | -0.398 z-score |
| B11 | 1.48 z-score |
| B12 | -1.51 z-score |
